Patent US20260365653A1, “IRREVERSIBLE MUTEGFR INHIBITORS” (Bayer Aktiengesellschaft, priority 2022, published 2026)

Amino acid sequences for entries named in this document (tags omitted). Chains listed by the source or under a name are the forms on record and can include a tag or linker. Residues count along the entry.
UniProt P00533, 669-1210 with tags or gaps DUP768-770 limits assumed: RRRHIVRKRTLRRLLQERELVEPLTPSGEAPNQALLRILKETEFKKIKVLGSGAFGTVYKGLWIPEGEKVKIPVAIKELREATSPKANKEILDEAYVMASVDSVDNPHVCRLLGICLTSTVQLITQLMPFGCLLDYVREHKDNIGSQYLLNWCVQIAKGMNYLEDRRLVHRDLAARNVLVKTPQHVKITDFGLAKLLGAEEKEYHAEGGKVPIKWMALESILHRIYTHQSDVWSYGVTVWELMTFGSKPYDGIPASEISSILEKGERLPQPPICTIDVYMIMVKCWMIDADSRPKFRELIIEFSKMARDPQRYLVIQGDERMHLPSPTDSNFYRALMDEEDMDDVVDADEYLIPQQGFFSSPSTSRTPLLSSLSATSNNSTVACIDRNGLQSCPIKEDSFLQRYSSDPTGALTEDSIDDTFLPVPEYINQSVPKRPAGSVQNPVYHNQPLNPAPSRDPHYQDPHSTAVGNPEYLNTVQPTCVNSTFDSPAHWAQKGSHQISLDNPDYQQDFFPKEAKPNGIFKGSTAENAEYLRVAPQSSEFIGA
UniProt P00533, 669-1210 with tags or gaps INS770NPG/T790M limits assumed: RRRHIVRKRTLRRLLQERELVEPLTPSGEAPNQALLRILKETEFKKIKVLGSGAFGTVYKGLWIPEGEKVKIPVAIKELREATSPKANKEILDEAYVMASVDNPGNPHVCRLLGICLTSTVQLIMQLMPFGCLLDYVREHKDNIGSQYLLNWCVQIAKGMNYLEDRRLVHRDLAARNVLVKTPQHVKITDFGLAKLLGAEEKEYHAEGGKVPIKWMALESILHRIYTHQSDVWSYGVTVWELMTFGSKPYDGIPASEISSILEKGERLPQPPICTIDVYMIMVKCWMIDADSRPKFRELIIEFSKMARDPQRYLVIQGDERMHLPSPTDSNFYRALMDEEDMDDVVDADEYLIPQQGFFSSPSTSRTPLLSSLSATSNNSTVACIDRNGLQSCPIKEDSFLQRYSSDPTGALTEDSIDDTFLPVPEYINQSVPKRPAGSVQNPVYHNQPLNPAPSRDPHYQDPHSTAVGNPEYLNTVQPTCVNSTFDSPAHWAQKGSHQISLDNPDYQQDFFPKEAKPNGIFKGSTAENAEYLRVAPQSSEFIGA

Legend:
[1] = molecular target: mutEGFR (D770_N771insNPG, T790) (Homo sapiens, UniProt P00533, INS770NPG/T790M); assay: mutEGFR (D770_N771insNPG, T790) kinase assay; conditions: read-out: mutEGFR (D770_N771insNPG, T790) kinase assay IC50, Table 2a
Text: (§1) The different EGFR proteins used in the biochemical kinase activity inhibition assays were generated inhouse by expression in insect cells using Baculo Virus system and subsequent purification as described in the following paragraphs.
(§2) The cDNAs encoding the various protein sequences from human EGFR human (P00533) were optimized for expression in eukaryotic cells and synthesized by the GeneArt Technology at Life Technologies.

BA/F3 (insSVD) cells = assay: Ba/F3-EGFR-insSVD cell survival assay (Cell Titer-Glo); conditions: read-out: BA/F3 (insSVD) IC50, Table 3a, with 10 ng/ml EGF, without IL-3, 48 h
Method: Cellular Data Description (WT, insSVD, insSVD T790M) 293T cells from ATCC were transfected with pBABEpuro expression constructs for WT EGFR or EGFR-insSVD, or EGFR-insSVD T790M, and pCL-Eco packaging vector using Fugene-6 transfection reagent from Promega. Plates were incubated at 37° C. for 48 h. Retrovirus was harvested by filtering the media supernatant through a 0.45 μm filter.
Ba/F3 cells purchased from DSMZ were grown in RPMI+10% FBS+10 ng/ml IL-3 and infected with filtered retroviral supernatant at a 1:2 dilution. Polybrene was added to a concentration of 8 μg/mL, plates were spun for 90 min, and incubated for 16 h at 37° C. 2 μg/mL puromycin was added to the infected cells 24 h after infection and cells were continually grown in the presence of puromycin and 10 ng/ml IL-3. Following stably expressing Ba/F3 cell lines were generated: Ba/F3-EGFR-WT, Ba/F3-EGFR-insSVD, Ba/F3-EGFR-insSVD T790M, (Ba/F3-vector-control).
For cell survival assays, Ba/F3 cells were grown to a density of 1-2 million cells per mL, spun down and resuspended in media without IL-3, and replated at a concentration of 200,000-500,000 cells per mL. […]
Cell viability was measured by adding 20 μL of Cell Titer-Glo Luminescent Cell Viability Reagent diluted 1:3 in PBS. […] Plates were incubated in low light conditions for 8-10 min and luminescence was measured.

[2] = molecular target: mutEGFR (D770_N771insSVD) (Homo sapiens, UniProt P00533, DUP768-770); assay: Exon20-Mutant-EGFR (D770_N771insSVD) kinase assay (TR-FRET); conditions: read-out: mutEGFR (D770_N771insSVD) kinase assay IC50, Table 2a, 2 mM ATP
Text: as §1, §2
Construct EGFR #3 amino acid R669 to A1210 and the insertion of the amino acids sequence SVD between D770 and N771
Inhibitory activity of compounds of the present invention against an Epidermal Growth Factor Receptor (EGFR) with an insertion of the amino acids sequence SVD between D770 and N771 was quantified employing the TR-FRET based kinase activity assay as described in the following paragraphs. […]
The resulting mixture was incubated 1 h at 22° C. to allow the binding of the biotinylated phosphorylated peptide to the streptavidine-XL665 and the PT66-Tb-Cryptate. Subsequently the amount of phosphorylated substrate was evaluated by measurement of the resonance energy transfer from the PT66-Tb-Cryptate to the streptavidine-XL665. Therefore, the fluorescence emissions at 620 nm and 665 nm after excitation at 337 nm were measured in a HTRF reader, e.g. a Pherastar (BMG Labtechnologies, Offenburg, Germany) or a Viewlux (Perkin-Elmer). […]

IC50 [1]: 879 nM
IC50 [2]: 3630 nM
Compound: C=CC(=O)N1CCn2nc(Nc3ccc(OC)c(F)c3)c(-c3ccnc4[nH]cc(C)c34)c2C1
IC50 (BA/F3 (insSVD) cells): 2950 nM
